Assay results published in paper PMC8284926 (Journal of the American Chemical Society, 2021).

System: HeLa cells
Test: Cytotoxicity in HeLa cells
Details: bleomycin 2 μM, alone

Substance: bleomycin
- cytotoxicity: 22%
